By IC50 is commonly meant the concentration that inhibits the measured activity by half.

The target in the assay is T1, human Fibroblast activation protein alpha (hFAP) (Homo sapiens, UniProt Q12884).
T1 construct: Proteros, 38-760 (PR-0071); purchased Proteros PR-0071
T1 sequence (Q12884 38-760): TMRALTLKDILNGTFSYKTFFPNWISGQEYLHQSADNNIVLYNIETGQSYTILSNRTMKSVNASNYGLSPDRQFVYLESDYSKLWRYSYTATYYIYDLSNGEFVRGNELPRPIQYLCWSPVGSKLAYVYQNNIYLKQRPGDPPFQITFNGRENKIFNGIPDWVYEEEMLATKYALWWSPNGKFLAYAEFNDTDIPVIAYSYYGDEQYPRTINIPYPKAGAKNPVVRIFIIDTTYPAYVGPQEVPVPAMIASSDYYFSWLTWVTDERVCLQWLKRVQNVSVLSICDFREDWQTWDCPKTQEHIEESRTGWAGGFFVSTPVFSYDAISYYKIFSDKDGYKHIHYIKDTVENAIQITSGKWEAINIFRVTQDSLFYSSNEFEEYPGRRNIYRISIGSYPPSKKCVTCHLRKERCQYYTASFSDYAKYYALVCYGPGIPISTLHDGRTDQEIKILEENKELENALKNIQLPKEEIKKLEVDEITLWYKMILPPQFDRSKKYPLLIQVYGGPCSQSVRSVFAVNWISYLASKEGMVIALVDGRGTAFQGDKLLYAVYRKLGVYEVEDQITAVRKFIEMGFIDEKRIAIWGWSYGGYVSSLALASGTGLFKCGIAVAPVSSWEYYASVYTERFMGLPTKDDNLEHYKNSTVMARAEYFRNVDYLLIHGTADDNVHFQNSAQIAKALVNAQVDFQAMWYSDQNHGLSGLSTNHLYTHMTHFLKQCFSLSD
The assay can be described thus: hFAP inhibition assay (tight binders). In kind it is biochemical. The note with it: Ala-Pro-AMC 20 μM, n = 1 or geometric mean (n = 2-5). As to the method: Data were analyzed in Genedata Screener®.
With `COCCOCc1ccc2nccc(C(=O)NCC(=O)N3CSC[C@H]3C#N)c2c1` [Example 31, (R)—N-(2-(4-Cyanothiazolidin-3-yl)-2-oxoethyl)-6-((2-methoxyethoxy)-methyl)quinoline-4-carboxamide], the 50% inhibitory concentration (IC50) was found to be 0.53 nM.

On to `N#C[C@@H]1CSCN1C(=O)CNC(=O)c1ccnc2ccc(COCC(F)F)cc12` [Example 36, (R)—N-(2-(4-Cyanothiazolidin-3-yl)-2-oxoethyl)-6-((2,2-difluoroethoxy)methyl)quinoline-4-carboxamide], for which it took 0.24 nM to reach half-maximal inhibition (IC50).

`N#C[C@@H]1CSCN1C(=O)CNC(=O)c1ccnc2ccc(COC3CC3)cc12` [Example 37, (R)—N-(2-(4-Cyanothiazolidin-3-yl)-2-oxoethyl)-6-(cyclopropoxy-methyl)quinoline-4-carboxamide] had an IC50 of 0.2 nM. This IC50 and that of the molecule before are within 1.5-fold of each other.

Turning to `Cc1conc1Cc1ccc2nccc(C(=O)NCC(=O)N3CSC[C@H]3C#N)c2c1` [Example 38, (R)—N-(2-(4-Cyanothiazolidin-3-yl)-2-oxoethyl)-6-((4-methylisoxazol-3-yl)methyl)quinoline-4-carboxamide], half-maximal inhibition (IC50) was put at 0.079 nM.

The molecule `Cc1cc(Cc2ccc3nccc(C(=O)NCC(=O)N4CSC[C@H]4C#N)c3c2)n(C)n1` [Example 40, (R)—N-(2-(4-Cyanothiazolidin-3-yl)-2-oxoethyl)-6-((1,3-dimethyl-1H-pyrazol-5-yl)methyl)quinoline-4-carboxamide] had an IC50 of 0.063 nM.

`Cn1ncc(Cc2ccc3nccc(C(=O)NCC(=O)N4CSC[C@H]4C#N)c3c2)n1` [Example 41, (R)—N-(2-(4-Cyanothiazolidin-3-yl)-2-oxoethyl)-6-((2-methyl-2H-1,2,3-triazol-4-yl)methyl)quinoline-4-carboxamide]: the IC50 came to 0.11 nM.

Turning to `Cc1ccc(C2(c3ccc4nccc(C(=O)NCC(=O)N5CSC[C@H]5C#N)c4c3)CC2)cn1` [Example 43, (R)—N-(2-(4-Cyanothiazolidin-3-yl)-2-oxoethyl)-6-(1-(6-methylpyridin-3-yl)cyclopropyl)quinoline-4-carboxamide], the IC50 came to 0.13 nM.

Regarding `N#C[C@@H]1CSCN1C(=O)CNC(=O)c1ccnc2ccc(C3(c4ncccc4F)CC3)cc12` [Example 44, (R)—N-(2-(4-Cyanothiazolidin-3-yl)-2-oxoethyl)-6-(1-(3-fluoropyridin-2-yl)cyclopropyl)quinoline-4-carboxamide], the half-maximal inhibitory concentration (IC50) turned out to be 0.12 nM.

`Cc1cc(C2(c3ccc4nccc(C(=O)NCC(=O)N5CSC[C@H]5C#N)c4c3)CC2)no1` [Example 45, (R)—N-(2-(4-Cyanothiazolidin-3-yl)-2-oxoethyl)-6-(1-(5-methylisoxazol-3-yl)cyclopropyl)quinoline-4-carboxamide]: the half-inhibitory concentration (IC50) worked out at 0.12 nM.

The molecule `N#C[C@@H]1CSCN1C(=O)CNC(=O)c1ccnc2ccc(C3(c4ccc(Cl)cn4)CC3)cc12` [Example 47, (R)-6-(1-(5-Chloropyridin-2-yl)cyclopropyl)-N-(2-(4-cyanothiazolidin-3-yl)-2-oxoethyl)quinoline-4-carboxamide] yielded an IC50 of 0.15 nM.

Take `Cc1cc(C2(c3ccc4nccc(C(=O)NCC(=O)N5CSC[C@H]5C#N)c4c3)CC2)on1` [Example 50, (R)—N-(2-(4-Cyanothiazolidin-3-yl)-2-oxoethyl)-6-(1-(3-methylisoxazol-5-yl)cyclopropyl)quinoline-4-carboxamide]: the IC50 came out at 0.064 nM.

For the molecule `CC(F)(F)Cc1ccc2nccc(C(=O)NCC(=O)N3CSC[C@H]3C#N)c2c1` [Example 53, (R)—N-(2-(4-Cyanothiazolidin-3-yl)-2-oxoethyl)-6-(2,2-difluoropropyl)quinoline-4-carboxamide], the IC50 was determined as 0.085 nM.

The molecule `N#C[C@@H]1CSCN1C(=O)CNC(=O)c1ccnc2ccc(CC3CCOCC3)cc12` [Example 56, (R)—N-(2-(4-Cyanothiazolidin-3-yl)-2-oxoethyl)-6-((tetrahydro-2H-pyran-4-yl)methyl)quinoline-4-carboxamide] registered an IC50 of 0.079 nM. The IC50 values of the last two molecules are within 1.5-fold of each other.
